Results taken from patent publication US5252571A, “1,4-benzothiazine-2-acetic acid derivatives” (Sapporo Breweries Limited, priority 1990, dated 1993).

Legend:
[1] = target: T1, human placenta aldehyde reductase (Homo sapiens, UniProt P14550); assay: Aldehyde reductase of human origin inhibitory activity (specificity); assay type: biochemical; details: 15 mM glucuronate
T1 construct: the fraction containing aldehyde reductase activity eluted by salt concentration gradient was dialyzed and used as aldehyde reductase enzyme standard; from tissue; host or cells: human placenta
T1 sequence (P14550 1-325): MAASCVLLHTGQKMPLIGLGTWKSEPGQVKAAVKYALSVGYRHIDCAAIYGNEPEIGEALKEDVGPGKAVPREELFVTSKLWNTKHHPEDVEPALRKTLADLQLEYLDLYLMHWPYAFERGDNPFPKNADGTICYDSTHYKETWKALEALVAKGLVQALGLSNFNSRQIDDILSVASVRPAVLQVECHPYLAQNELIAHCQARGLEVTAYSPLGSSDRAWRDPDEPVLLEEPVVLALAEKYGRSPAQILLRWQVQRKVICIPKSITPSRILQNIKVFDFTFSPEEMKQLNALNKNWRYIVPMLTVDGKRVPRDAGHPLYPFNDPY
Protocol: (§1) That is, human placenta stored at -80° C. was homogenized in distilled water followed by centrifugation at 10,000 XG for 15 minutes. […] The dialysate was applied to DEAE-cellulose column. The fraction containing aldose reductase activity eluted by salt concentration gradient was dialyzed and used as aldose reductase enzyme standard. Furthermore, after fractionation with ammonium sulfate solution, the dialysate was applied to Red Sepharose CL-6B, the fraction containing aldehyde reductase activity eluted by salt concentration gradient was dialyzed and used as aldehyde reductase enzyme standard.
That is, the activity was determined in a manner similar to the case of determining aldose reductase activity, using 200 mM phosphate buffer (pH 7.0) prepared to contain 0.1 mM NADPH in a final concentration and 15 mM glucuronate as substrate.

[2] = target: T2, human placenta aldose reductase (Homo sapiens, UniProt P15121); assay: Aldose reductase of human origin inhibitory activity; assay type: biochemical; details: ratio of IC50 aldehyde reductase to aldose reductase
T2 construct: The aldose reductase enzyme standard was prepared from human placenta; from tissue; host or cells: human placenta
Protocol: as §1
That is, 25 μl of the enzyme solution described above and 25 μl of a drug solution in 1% DMSO having various concentrations were added to 200 μl of 40 Mm phosphate buffer (pH 6.2) prepared to contain 0.4 M lithium sulfate and 0.1 mM NADPH (reduced nicotinamide adenine dinucleotide phosphate) in final concentrations and containing 3 mM d1-glyceraldehyde as substrate, respectively.

- 10 μM inhibition % HPALR ([1]; 10 μM, pH 7.0): 95.7%
- IC50 ([1]; pH 7.0, read-out: IC50 HPALR (in parentheses, *IC50 : μM)): 0.55 µM
- Ratio HPALR/HPAR [2]: 26
Compound: COc1ccc2c(C(=S)N(C)CC(=O)O)cccc2c1C(F)(F)F [Tolrestat, reference compound]
